This passage reports T/C, IC50 and OD results from ChEMBL document CHEMBL1129802, “Novel phenyl nitrogen mustard and half-mustard derivatives of amidino-modified distamycin” (1997).

Values after ≈ are worked out from the molar mass of the structure shown.

Assay [1] is filed under the species Mus musculus. Nature of the assay: Increase in median survival time of L1210 (murine leukemia) injected mice.
The species named for assay [2] is Mus musculus. As to the kind of experiment: In vitro test for cytotoxicity after 48 hr of continuous exposure against L1210 murine leukemia cells.
For assay [3], the system named is Mus musculus. Nature of the assay: Optimal dose in mice (sub LD10 mg/kg).

For orientation: T/C means the ratio of treated to control. As a reminder, the IC50 is the point on the concentration scale where inhibition reaches its midpoint. `CN(C)CCCNC(=O)c1cc(NC(=O)c2cc(NC(=O)c3cc(NC(=O)c4ccc(N(CCCl)CCCl)cc4)cn3C)cn2C)cn1C.Cl` came in with a T/C in assay [1] of 100%. This molecule displayed an IC50 in assay [2] of 1 µg/mL.
The like results for `Cl.Cn1cc(NC(=O)c2cc(NC(=O)c3cc(NC(=O)c4ccc(N(CCCl)CCCl)cc4)cn3C)cn2C)cc1C(=O)NCCN=C(N)N` were, in that order, 114% and 0.0644 µg/mL.
In turn, `Cl.Cn1cc(NC(=O)c2cc(NC(=O)c3cc(NC(=O)/C=C/c4ccc(N(CCCl)CCCl)cc4)cn3C)cn2C)cc1C(=O)NCCC(=N)N` showed an IC50 in assay [2] of 0.0072 µg/mL.
For `CCN(CCCl)c1ccc(C(=O)Nc2cc(C(=O)Nc3cc(C(=O)Nc4cc(C(=O)NCCC(=N)NC)n(C)c4)n(C)c3)n(C)c2)cc1.Cl`, in assay [1], the T/C was 129%. In assay [2], this molecule had an IC50 of 0.0212 µg/mL.
For `Cn1cc(NC(=O)c2cc(NC(=O)c3cc(NC(=O)c4ccc(N(CCCl)CCCl)cc4)cn3C)cn2C)cc1C(=O)NCCC(N)=O`, in assay [2], the IC50 is 0.13 µg/mL (≈ 0.186 µM).
`C/N=C(/CCNC(=O)c1cc(NC(=O)c2cc(NC(=O)c3cc(NC(=O)c4ccc(N(CCCl)CCCl)cc4)cn3C)cn2C)cn1C)NC.Cl`: the T/C in assay [1] was 100%. Also, inhibition in assay [2] was half-maximal at 0.0365 µg/mL (IC50).
For `CCN(CCCl)c1ccc(C(=O)Nc2cc(C(=O)Nc3cc(C(=O)Nc4cc(C(=O)NCCC(=N)N)n(C)c4)n(C)c3)n(C)c2)cc1.Cl`, in that order: 133% and 0.042 µg/mL.
For `Cn1cc(NC(=O)c2cc(NC(=O)c3cc(NC(=O)c4ccc(N(CCCl)CCCl)cc4)cn3C)cn2C)cc1C(=O)NCCC#N`, in assay [1], the T/C turned out to be 133%. In assay [2], inhibition was half-maximal at 0.094 µg/mL (≈ 0.138 µM) (IC50).
The like results for `CCN(CCCl)c1ccc(C(=O)Nc2cc(C(=O)Nc3cc(C(=O)Nc4cc(C(=O)NCCN=C(N)N)n(C)c4)n(C)c3)n(C)c2)cc1.Cl` were, in that order, 158% and 0.0622 µg/mL.
As to `Cn1cc(NC(=O)c2cc(NC(=O)c3cc(NC(=O)c4ccc(N(CCCl)CCCl)cc4)cn3C)cn2C)cc1C(=O)NCCCO`, in assay [2], the IC50 was over 2 µg/mL.
As to `Cn1cc(NC(=O)c2cc(NC(=O)c3cc(NC(=O)c4ccc(N(CCCl)CCCl)cc4)cn3C)cn2C)cc1C(=O)NCCC(=N)NN`, the T/C in assay [1] is 136%. This molecule also had an IC50 in assay [2] of 0.738 µg/mL (≈ 1.04 µM).
With `Cl.Cn1cc(NC(=O)c2cc(NC(=O)c3cc(NC(=O)c4ccc(N(CCCl)CCCl)cc4)cn3C)cn2C)cc1C(=O)NCCCC1=NCCN1`, inhibition in assay [2] was half-maximal at 0.143 µg/mL (IC50).
The molecule `Cl.Cn1cc(NC(=O)c2cc(NC(=O)c3cc(NC(=O)/C=C/c4ccc(N(CCCl)CCCl)cc4)cn3C)cn2C)cc1C(=O)NCCN=C(N)N` registered a T/C in assay [1] of 200%. Also, the IC50 in assay [2] amounted to 0.0074 µg/mL.
The like results for `Cn1cc(NC(=O)c2cc(NC(=O)c3cc(NC(=O)c4ccc(N(CCCl)CCCl)cc4)cn3C)cn2C)cc1C(=O)NCCC(=N)NC#N` were, in that order, 129% and 0.0379 µg/mL (≈ 0.0524 µM).
The like results for `CNC(=N)CCNC(=O)c1cc(NC(=O)c2cc(NC(=O)c3cc(NC(=O)/C=C/c4ccc(N(CCCl)CCCl)cc4)cn3C)cn2C)cn1C.Cl` were, in that order, 192% and 0.0039 µg/mL.
In the case of `CCN(CCCl)c1ccc(C(=O)Nc2cc(C(=O)Nc3cc(C(=O)Nc4cc(C(=O)NCCC(=N)NC#N)n(C)c4)n(C)c3)n(C)c2)cc1`, the T/C in assay [1] amounted to 267%. For the same molecule, it took 0.363 µg/mL (≈ 0.527 µM) to reach half-maximal inhibition in assay [2] (IC50).
Molecule `Cn1cc(NC(=O)c2cc(NC(=O)c3cc(NC(=O)/C=C/c4ccc(N(CCCl)CCCl)cc4)cn3C)cn2C)cc1C(=O)NCCC(=N)NO` came in with a T/C in assay [1] of 150%. In addition, half-maximal inhibition in assay [2] (IC50) required 0.0424 µg/mL (≈ 0.0573 µM).
For `C/N=C(/CCNC(=O)c1cc(NC(=O)c2cc(NC(=O)c3cc(NC(=O)/C=C/c4ccc(N(CCCl)CCCl)cc4)cn3C)cn2C)cn1C)NC.Cl`, in that order: 100% and 0.0064 µg/mL.
Turning to `Cn1cc(NC(=O)c2cc(NC(=O)c3cc(NC(=O)c4ccc(N(CCCl)CCCl)cc4)cn3C)cn2C)cc1C(=O)NCCC(=O)O`, the T/C in assay [1] was found to be 100%. Further, the midpoint of inhibition in assay [2], the IC50, lay at 0.96 µg/mL (≈ 1.37 µM).
The like results for `Cl.Cn1cc(NC(=O)c2cc(NC(=O)c3cc(NC(=O)c4ccc(N(CCCl)CCCl)cc4)cn3C)cn2C)cc1C(=O)NCCCc1ncc[nH]1` were, in that order, 117% and 0.069 µg/mL.
`Cn1cc(NC(=O)c2cc(NC(=O)c3cc(NC(=O)/C=C/c4ccc(N(CCCl)CCCl)cc4)cn3C)cn2C)cc1C(=O)NCCC(=N)NC#N` came in with a T/C in assay [1] of 183%. The same molecule registered an IC50 in assay [2] of 0.0054 µg/mL (≈ 0.00721 µM).
`Cl.Cn1cc(NC(=O)c2cc(NC(=O)c3cc(NC(=O)c4ccc(N(CCCl)CCCl)cc4)cn3C)cn2C)cc1C(=O)NCCC(=N)N` registered an OD in assay [3] of 3.13 mg/kg. This molecule returned an IC50 in assay [2] of 0.0503 µg/mL.
Molecule `Cn1cc(NC(=O)c2cc(NC(=O)c3cc(NC(=O)c4ccc(N(CCCl)CCCl)cc4)cn3C)cn2C)cc1C(=O)NCCC(=N)NO` yielded a T/C in assay [1] of 129%. The IC50 in assay [2] is 1.48 µg/mL (≈ 2.07 µM).
`CNC(=N)CCNC(=O)c1cc(NC(=O)c2cc(NC(=O)c3cc(NC(=O)c4ccc(N(CCCl)CCCl)cc4)cn3C)cn2C)cn1C.Cl` yielded a T/C in assay [1] of 150%. In assay [2], half-maximal inhibition (IC50) was put at 0.0385 µg/mL.
